“And” between values parts separate entries of the source, which are not always exact repeats. Equal entries are not always repeated.
System: male NMRI mice
Assay: Gridshock test (pain threshold, CNS effect)
Conditions: i.v.

CC(C)C1CCC(N2CCC3(CC2)C(=O)NCN3c2ccccc2)CC1 (stereo not shown)
dose at which statistical significant analgesia was observed: 1000 nmol/kg and 2000 nmol/kg

— patent US20080287478A1 (priority 2003, published 2008)
